Here are results for 22 compounds from US20060135484A1, “Vesicant treatment with phenyl-thiophene type vitamin d receptor modulators” (published 2006).

The chains behind the UniProt entries cited, without tags or fusion partners. Residues count along the entry.
UniProt P11473, 127-423 limits assumed: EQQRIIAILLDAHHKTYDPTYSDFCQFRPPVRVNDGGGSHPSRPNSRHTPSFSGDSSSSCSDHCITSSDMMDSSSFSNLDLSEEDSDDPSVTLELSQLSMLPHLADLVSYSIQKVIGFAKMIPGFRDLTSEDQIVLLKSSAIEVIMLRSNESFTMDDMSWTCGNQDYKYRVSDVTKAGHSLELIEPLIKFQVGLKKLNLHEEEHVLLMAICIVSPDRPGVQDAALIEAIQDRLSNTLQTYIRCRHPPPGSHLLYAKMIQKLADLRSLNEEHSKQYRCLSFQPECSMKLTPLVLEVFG

Data set [1] deals with RXR-VDR heterodimer (Gal4-RXR-DEF and VP16-VDR-LBD) (Homo sapiens, UniProt P11473). Nature of the data set: RXR-VDR heterodimerization assay (SaOS-2 cells). Particulars: read-out: RXR-VDR (SaOS-2 cells) EC50.
Data set [2] is described as follows: Mouse hypercalcemia assay.
Data set [3] concerns the target VDR (pGal4-VDR-LBD) (Homo sapiens, UniProt P11473). The data set can be described thus: VDR CTF (Caco-2 cell co-transfection assay). Particulars: read-out: VDR CTF (Caco-2 cells) EC50.
The test system of data set [4] is KERtr cells. Nature of the data set: Keratinocyte proliferation assay. Particulars: read-out: Kera. Prolif. IC50, BrdU incorporation, 72 hr.
For data set [5], the system named is rat osteocalcin promoter. Nature of the data set: OCN (osteocalcin) promoter assay. Particulars: read-out: OCN Promoter EC50.
Data set [6] concerns IL-10. Nature of the data set: IL-10 induction assay. Particulars: read-out: IL-10 IC50; TPA/PHA treated PBMCs, IL-10 in supernatant by immunoassay.

As to `CCC(CC)(c1ccc(OCC(=O)C(C)(C)C)c(C)c1)c1ccc(OCC(=O)C(C)(C)C)c(C)c1`, in data set [1], the EC50 (as a rule, the concentration giving half of the maximal effect) is 109 nM. Also, the “Mouse Hypercal” value in data set [2] was 1000 µg/kg/day.
As to `CCCc1cc(C(CC)(CC)c2ccc(C(=O)O)s2)ccc1OCC(O)C(C)(C)C` (stereo not shown), the “Mouse Hypercal” value in data set [2] is 3000 µg/kg/day. Moreover, the EC50 in data set [3] is 598 nM.
As for `CCC(CC)(c1ccc(OCC(O)CO)c(C)c1)c1ccc(OCC(O)C(C)(C)C)c(C)c1` (stereo not shown), the “Mouse Hypercal” value in data set [2] is recorded as “>=20 μg/Kg/d”.
As to `CCC(CC)(c1ccc(OCC(O)C(C)(C)C)c(C)c1)c1cc(C)c(-c2n[nH]c(=O)o2)s1` (stereo not shown), the EC50 in data set [1] worked out at 80.7 nM; in data set [5], 17.6 nM; in data set [3] it was 371 nM. Besides, in data set [4], the IC50 was 522 nM.
For the compound `CCC(CC)(c1ccc(OCC(O)C(C)(C)C)c(C)c1)c1cc(C)c(S(=O)(=O)NCC(=O)O)s1` (stereo not shown), the EC50 in data set [1] is 409 nM. Further, in data set [2], the “Mouse Hypercal” value is >3000 µg/kg/day.
Consider `CCC(CC)(c1ccc(CCC(O)C(C)(C)C)c(C)c1)c1cc(C)c(S(=O)(=O)NCC(=O)O)s1` (single isomer, unassigned), for which the EC50 in data set [1] came to 394 nM; in data set [5], 40.5 nM; in data set [3], 604 nM.
Take `CCc1cc(C(CC)(CC)c2ccc(C(=O)N[C@@H](C)C(=O)O)s2)ccc1OCC(C)(O)C(C)(C)C` (single isomer, unassigned): the EC50 was found to be 18.8 nM in data set [1] and 113 nM in data set [3]. In addition, the “Mouse Hypercal” value in data set [2] is <300 µg/kg/day.
Take “3′-[4-(2-hydroxy-3,3-dimethylbutoxy)-3-n-propylphenyl]-3′-[5-carboxy-thiophen-2-yl]pentane”: the concentration for a half-maximal effect (EC50) in data set [1] was found to be 421 nM; in data set [5], 21.4 nM; in data set [3], 1180 nM.
On the same counts, the results for `CCC(CC)(c1ccc(OCC(O)C(C)(C)C)c(C)c1)c1cc(C)c(-c2n[nH]c(=S)o2)s1` (single isomer, unassigned) are 80.9 nM, 25.4 nM and 645 nM.
Consider `CCc1cc(C(CC)(CC)c2ccc(C(=O)O)s2)ccc1OCC(O)C(C)(C)C` (stereo not shown), for which the “Mouse Hypercal” value in data set [2] was >1000 µg/kg/day.
As for `CCc1cc(C(CC)(CC)c2ccc(C(=O)O)s2)ccc1OCC(C)(O)C(C)(C)C` (single isomer, unassigned), the values for the EC50 in data set [1] and in data set [3] were 160 nM and 352 nM, respectively. Further, the “Mouse Hypercal” value in data set [2] was 300 µg/kg/day.
As for `CCC(CC)(c1ccc(OCC(O)C(C)(C)C)c(C(C)C)c1)c1ccc(C(=O)O)s1` (stereo not shown), the “Mouse Hypercal” value in data set [2] is 1000 µg/kg/day.
On the same count and under the same terms, with 1α,25-dihydroxyvitamin D3 the figure was 0.06 µg/kg/day.
Consider `CCC(CC)(c1ccc(OCC(=O)C(C)(C)C)c(C)c1)c1cc(C)c(S(=O)(=O)N[C@H](C)C(=O)O)s1`, for which the EC50 in data set [1] worked out at 676 nM. Besides, the “Mouse Hypercal” value in data set [2] was >3000 µg/kg/day.
Regarding `CCc1cc(C(CC)(CC)c2ccc(C(=O)O)s2)ccc1OCC(O)C(C)(C)C` (single isomer, unassigned), the EC50 in data set [1] turned out to be 53.1 nM; in data set [3] it was 615 nM. Moreover, the “Mouse Hypercal” value in data set [2] was 3000 µg/kg/day.
Take `CCC(CC)(c1ccc(OCC(O)C(C)(C)C)c(C)c1)c1cc(C)c(S(=O)(=O)NCC(=O)O)s1` (single isomer, unassigned): the IC50 in data set [6] was determined as 110 nM. For the same compound, the EC50 was determined as 476 nM in data set [1], 27.1 nM in data set [5] and 1060 nM in data set [3].
As for `CCC(CC)(c1ccc(OCC(=O)C(C)(C)C)c(C)c1)c1cc(C)c(S(=O)(=O)NCCC(=O)O)s1`, the EC50 in data set [1] stood at 688 nM; in data set [3] it was 1510 nM. Also, in data set [2], the “Mouse Hypercal” value is 3000 µg/kg/day.
In the case of `CCC(CC)(c1ccc(OCC(=O)C(C)(C)C)c(C)c1)c1cc(C)c(S(=O)(=O)NC(C)=O)s1`, in data set [1], the EC50 was 901 nM. Further, the “Mouse Hypercal” value in data set [2] was 3000 µg/kg/day.
Turning to `CCC(CC)(c1ccc(OCC(=O)C(C)(C)C)c(C)c1)c1cc(C)c(CN(CC(=O)O)C(C)=O)s1`, the values for the EC50 in data set [1] and in data set [3] were 603 nM and 958 nM, respectively. Also, in data set [2], the “Mouse Hypercal” value is >9000 µg/kg/day.
On to `CCC(CC)(c1ccc(CCC(O)C(C)(C)C)c(C)c1)c1cc(C)c(C(=O)NCC(=O)OC)s1` (stereo not shown), for which the EC50 in data set [1] was determined as 136 nM; in data set [5], 174 nM; in data set [3], 289 nM. Besides, the IC50 in data set [4] was 114 nM.
`CCC(CC)(c1ccc(OCC(=O)C(C)(C)C)c(C)c1)c1cc(C)c(S(=O)(=O)NCC(=O)O)s1`: in data set [1], the EC50 worked out at 479 nM. For the same compound, the “Mouse Hypercal” value in data set [2] is >3000 µg/kg/day.
As for `CCC(CC)(c1ccc(OCC(O)C(C)(C)C)c(C)c1)c1cc(C)c(S(=O)(=O)NCC(=O)OC)s1` (single isomer, unassigned), the EC50 in data set [1] was 318 nM; in data set [5], 29.9 nM; in data set [3] it was 620 nM.
